# Antibody variant affinities, Ab-14 light chain, assay B

Source: Li et al. 2023 (doi:10.1038/s41467-023-39022-2), MIT Lincoln Laboratory and A-Alpha Bio; data file from the FLAb repository.

The target is the same throughout: PDVDLGDISGINAS, from the HR2 region of SARS-CoV-2 spike.

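The starting antibody came from a phage panning campaign against this peptide. The variants were designed computationally from a first round of random CDR variants and then made and measured. Their group label is 14L_GP_Gen (GP: Gaussian process model; Gen: genetic algorithm; a sequence that several methods proposed may carry one label only). The assay is AlphaSeq: two haploid yeast populations carry antibody and antigen on their surface. Mating (16 h, 30 °C) was followed by selection of diploids and sequencing of their barcodes. Scores were corrected for input abundance and mapped to Kd with protein pairs of known affinity run in the same pool. Each pool was mated in six replicate cultures.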

Ab-14 is the parent antibody, in scFv form: VH, then three GGGGS repeats, then VL. The heavy chain is unchanged in all variants.
VH: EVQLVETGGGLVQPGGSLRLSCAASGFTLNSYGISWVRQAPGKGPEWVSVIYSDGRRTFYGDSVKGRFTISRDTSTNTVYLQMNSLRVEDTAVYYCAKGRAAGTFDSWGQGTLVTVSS
VL: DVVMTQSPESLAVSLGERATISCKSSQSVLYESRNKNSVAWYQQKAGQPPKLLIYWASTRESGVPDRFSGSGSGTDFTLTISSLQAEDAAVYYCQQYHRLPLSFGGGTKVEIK

Variants are written as CDR1, CDR2 and CDR3 of the light chain (limits as in the source). Parent: KSSQSVLYESRNKNSVA, WASTRES, QQYHRLPLS.
Numbers give log10(Kd / nM), so 0 is 1 nM and 3 is 1 µM. Smaller is tighter.
Averages over replicates are reported, and they cover detected replicates only.
Nonspecific signal, from three strains lacking the peptide, appeared in 4% of pairings of all light chain designs, centred on 2.64 (5% of these signals below 1.59); values are not corrected for it. Also given: how often the same scFv was detected with the empty control strains, with their mean in brackets.

CDR-L1 | CDR-L2 | CDR-L3 | log10 Kd, replicates | mean, log10 nM | empty controls
KVSQSHLYESRNKNNVA | DASTRES | QQYHRLPLS | -0.48 / -0.51 / -0.48 / -0.79 / -0.67 / -0.46 | -0.56 | 1/18 (2.47)
KLSQSVPYESRNKNSVA | NASTREM | QQYHRLPLS | 0.13 / 0.22 / 0.12 / 0.22 / 0.06 / 0.37 | 0.19 | 3/18 (2.16)
KLSQSVLYESRNKNNVA | GASTRMS | QQYHRLPLS | -0.19 / -0.43 / -0.45 / -0.34 / -0.35 / -0.27 | -0.34 | 0/18
KYSQSWLYESRNKNSVA | NASQRES | QQYHRLPLS | 0.17 / 0.00 / -0.01 / -0.14 / -0.25 / -0.07 | -0.05 | 0/18
KLSQSFLYESRNKNSVA | NASTRES | QDYHRLPLS | 0.18 / 0.02 / -0.29 / -0.42 / -0.22 / -0.08 | -0.14 | 1/18 (1.99)
KLSQSELYESRNKNSVA | EASQRCS | QQYHRLPLS | 0.41 / 0.05 / -0.07 / 0.17 / 0.15 / 0.25 | 0.16 | 0/18
KFEQSVLYESRNKNSVA | NASQRES | QQYHRLPLS | 0.22 / -0.21 / 0.04 / -0.01 / -0.06 / -0.02 | -0.01 | 1/18 (2.76)
KFSQSHLYESRNKNSVA | NASQRES | QQYHRLPLS | 0.17 / -0.07 / -0.42 / -0.23 / -0.06 / 0.15 | -0.08 | 0/18
KLSQSVLMLSRNKNSVA | EASTRES | QQYHRLPLS | -0.28 / -0.56 / -0.55 / -0.39 / -0.38 / -0.39 | -0.43 | 0/18
KLPQSVWYESRNKNSVA | NASTRES | QQYHRLPLS | -0.13 / 0.07 / -0.30 / -0.57 / -0.29 / -0.31 | -0.26 | 0/18
KLEQSMLYESRNKNSVA | NASTRLS | QQYHRLPLS | -0.17 / -0.18 / -0.36 / -0.21 / -0.11 / -0.18 | -0.20 | 0/18
KLSQSVLYESRNKNSVA | NASTRYQ | QQYHRLPLS | 0.18 / 0.12 / 0.14 / 0.00 / -0.03 / 0.17 | 0.10 | 3/18 (2.47)
KFSQSVLYEDRNFNSVA | NASQRES | QQYHRLPLS | 0.18 / 0.22 / 0.15 / 0.02 / -0.12 / 0.33 | 0.13 | 0/18
KLQQSVLYESRNKNSVA | HASTRSS | QQYHRLPLS | 0.18 / 0.37 / 0.25 / 0.10 / 0.06 / 0.19 | 0.19 | 0/18
KLEQSVEYESRNKNSVA | NASQRES | QQYHRLPLS | 0.52 / 0.71 / 0.48 / 0.14 / 2.12 / 0.47 | 0.74 | 0/18
KLQQSVEYESRNKNSVA | QASTRES | QQYHRLPLS | -0.07 / -0.04 / -0.02 / -0.23 / -0.24 / -0.03 | -0.10 | 0/18
KLSQSVLYEQRNKNSVA | NASQRES | QQYHRLPLS | -0.13 / -0.22 / -0.29 / -0.42 / -0.33 / -0.14 | -0.25 | 1/18 (3.15)
KFSQSELYESRNKNSVA | DASQRES | QQYHRLPLS | 0.15 / -0.12 / -0.07 / -0.04 / 0.05 / 0.35 | 0.05 | 2/18 (2.55)
KLSQMVLYESRNKNSVA | NASTRES | QQYHRLPLS | 0.09 / 0.03 / -0.06 / -0.17 / -0.11 / 0.04 | -0.03 | 5/18 (2.46)
KLSQSHLYESRNKNSVA | DASTRLS | QQYHRLPLS | 0.49 / 0.03 / -0.11 / 0.39 / 0.28 / -0.22 | 0.14 | 0/18
KFSQSVLYESRVKNSVA | NASQRES | QQYHRLPLS | 0.01 / 0.09 / 0.06 / -0.25 / -0.13 / 0.32 | 0.02 | 2/18 (2.96)
KLVQSWLYESRNKNSVA | NASTRES | QQYHRLPLS | 0.23 / 0.31 / 0.11 / 0.34 / 0.30 / 0.30 | 0.27 | 2/18 (2.34)
KLSQSELYESRNKNNVA | GASTRES | QQYHRLPLS | -0.58 / -0.48 / -0.56 / -0.72 / -0.54 / -0.47 | -0.56 | 0/18
KLSQSVMYESRNKNSVA | EASQRES | QQYHRLPLS | 0.08 / -0.07 / -0.08 / -0.19 / -0.17 / 0.04 | -0.07 | 0/18
KVPQSMLYESRNKNSVA | NASQRES | QQYHRLPLS | -0.12 / -0.43 / -0.38 / -0.40 / -0.25 / -0.16 | -0.29 | 2/18 (2.38)
KLSQSDLYESRNKNSVA | NASTREM | QQYHRLPLS | 0.11 / -0.08 / 0.03 / -0.28 / -0.08 / 0.09 | -0.04 | 3/18 (2.38)
KLSQSELYESRNANNVA | NASTRES | QQYHRLPLS | -0.30 / -0.51 / -0.58 / -0.77 / -0.67 / -0.38 | -0.53 | 2/18 (3.56)
KFSQSVWYESRNKNSVA | NASTRES | QQYHRLPLS | -0.10 / -0.13 / -0.31 / -0.20 / -0.08 / -0.18 | -0.17 | 1/18 (1.55)
KLSQSVLYEERNKNSVA | QASQRES | QQYHRLPLS | -0.99 / -0.98 / -1.32 / -1.18 / -1.23 / -0.92 | -1.10 | 0/18
KISQSVLYESRNKNSVA | NASTRYS | QQYHRLPLS | 0.02 / -0.07 / 0.08 / -0.43 / -0.16 / -0.15 | -0.12 | 1/18 (2.13)
KLQQSHLYESRNKNSVA | NASTRCS | QQYHRLPLS | 0.03 / -0.02 / -0.02 / -0.24 / 0.08 / 0.08 | -0.02 | 0/18
KLQQSQLYESRMKNSVA | NASQRES | QQYHRLPLS | 0.35 / 0.15 / 0.07 / -0.30 / -0.40 / 0.09 | -0.01 | 0/18
KLSQSVLYESRNKNSVA | NASTREV | QQYHRLPLM | 0.00 / -0.04 / -0.18 / -0.21 / -0.24 / -0.22 | -0.15 | 1/18 (3.58)
KISQSVLYESRNKNNVA | GASTRES | QQYHRLPLS | -0.59 / -0.65 / -0.69 / -0.85 / -0.66 / -0.59 | -0.67 | 0/18
KLSQSFLYESRNKNSVA | EASTREE | QQYHRLPLS | -0.29 / -0.42 / -0.36 / -0.53 / -0.44 / -0.30 | -0.39 | 2/18 (3.25)
KFEQSELYESRNKNSVA | NASQRES | QQYHRLPLS | 0.27 / 0.58 / 0.03 / -0.06 / -0.07 / 0.19 | 0.16 | 0/18
KVSQSYLYESRNKNSVA | DASTRES | QQYHRLPLS | -0.74 / -0.52 / -0.49 / -0.83 / 0.30 / -0.35 | -0.44 | 0/18
KLSQSQLYESRNKNSVA | QASTRES | QQYHRLPLS | 0.33 / 0.15 / 0.37 / 0.09 / 0.37 / 0.28 | 0.26 | 0/18
KLSQSDLYESRNKNNVA | NASTRES | QQYHRLPLS | -0.31 / -0.38 / -0.61 / -0.66 / -0.53 / -0.42 | -0.48 | 1/18 (2.80)
KLSQSVPYEERNKNSVA | NASTRES | QQYHRLPLS | -0.13 / -0.16 / -0.20 / -0.37 / -0.24 / 0.01 | -0.18 | 0/18
KLSQQVLYESRNKNSVA | DASTRES | QQYHRLPLS | -0.32 / -0.51 / -0.61 / -0.57 / -0.51 / -0.42 | -0.49 | 0/18
KLSQSVPYESRNKNSVA | SASTRES | QQYHRLPLS | 0.10 / -0.20 / -0.22 / -0.16 / -0.11 / -0.12 | -0.12 | 0/18
KLSQSHDYESRNKNSVA | NASTRES | QQYHRLPLS | -0.11 / -0.32 / -0.32 / -0.38 / -0.38 / -0.15 | -0.28 | 2/18 (3.32)
KVQQSNLYESRNKNSVA | EASTRES | QQYHRLPLS | -0.16 / -0.26 / -0.44 / -0.44 / -0.46 / 0.37 | -0.23 | 2/18 (3.60)
KVSQSVLYEERNKNSVA | NASQRES | QQYHRLPLS | 1.86 / 2.05 / 2.29 / 3.01 / 1.48 / 2.41 | 2.18 | 1/18 (2.89)
HLSQSVLYESRNKNSVA | NASTREK | QQYHRLPLS | -0.32 / -0.21 / -0.24 / -0.38 / -0.19 / -0.28 | -0.27 | 1/18 (2.72)
KLSQSVLYESRNKNSVA | EASTRME | QQYHRLPLS | -0.35 / -0.46 / -0.32 / -0.42 / -0.28 / -0.18 | -0.33 | 2/18 (2.58)
KLSQSKLYESRNKNSVA | EASTRES | QQYHRLPLS | 0.37 / -0.41 / -0.55 / -0.36 / 0.03 / 0.45 | -0.08 | 0/18
KLPQSVLYESRNKNSVA | HASQRES | QQYHRLPLS | 0.09 / 0.02 / 0.27 / -0.21 / 0.03 / 0.21 | 0.07 | 0/18
KLPQSTLYESRNKNAVA | NASTRES | QQYHRLPLS | 0.60 / 1.02 / 0.64 / 0.46 / 0.83 / 0.87 | 0.74 | 2/18 (3.21)

8 of these entries, quoted again:

CDR-L1 | CDR-L2 | CDR-L3 | log10 Kd, replicates | mean, log10 nM | empty controls
KLSQSVPYESRNKNSVA | NASTREM | QQYHRLPLS | 0.13 / 0.22 / 0.12 / 0.22 / 0.06 / 0.37 | 0.19 | 3/18 (2.16)
KLQQSHLYESRNKNSVA | NASTRCS | QQYHRLPLS | 0.03 / -0.02 / -0.02 / -0.24 / 0.08 / 0.08 | -0.02 | 0/18
KLQQSVLYESRNKNSVA | HASTRSS | QQYHRLPLS | 0.18 / 0.37 / 0.25 / 0.10 / 0.06 / 0.19 | 0.19 | 0/18
KLEQSMLYESRNKNSVA | NASTRLS | QQYHRLPLS | -0.17 / -0.18 / -0.36 / -0.21 / -0.11 / -0.18 | -0.20 | 0/18
KLSQSVLYESRNKNSVA | NASTREV | QQYHRLPLM | 0.00 / -0.04 / -0.18 / -0.21 / -0.24 / -0.22 | -0.15 | 1/18 (3.58)
KLQQSVEYESRNKNSVA | QASTRES | QQYHRLPLS | -0.07 / -0.04 / -0.02 / -0.23 / -0.24 / -0.03 | -0.10 | 0/18
KLPQSVLYESRNKNSVA | HASQRES | QQYHRLPLS | 0.09 / 0.02 / 0.27 / -0.21 / 0.03 / 0.21 | 0.07 | 0/18
KLSQSVLYEERNKNSVA | QASQRES | QQYHRLPLS | -0.99 / -0.98 / -1.32 / -1.18 / -1.23 / -0.92 | -1.10 | 0/18

A sequence measured in both rounds can read differently, since the two assays cover different ranges.
In the paper, a design with two or fewer of six values counts as a poor binder.
Of ten entries with the parent sequence, four were seen in most replicates (averages 0.34 to 2.37), three in one and three in none, so single entries are noisy.